Experimental data: patent EP1200406B1, “CYCLIC AMIDES AND IMIDES HAVING SELECTIVE ANTAGONIST ACTIVITY AT ALPHA-1D ADRENERGIC RECEPTOR” (RECORDATI INDUSTRIA CHIMICA E FARMACEUTICA S.p.a., priority 1999, dated 2001)

By UniProt entry, the sequences of proteins in these tests, tags left out.
UniProt P25100, whole entry: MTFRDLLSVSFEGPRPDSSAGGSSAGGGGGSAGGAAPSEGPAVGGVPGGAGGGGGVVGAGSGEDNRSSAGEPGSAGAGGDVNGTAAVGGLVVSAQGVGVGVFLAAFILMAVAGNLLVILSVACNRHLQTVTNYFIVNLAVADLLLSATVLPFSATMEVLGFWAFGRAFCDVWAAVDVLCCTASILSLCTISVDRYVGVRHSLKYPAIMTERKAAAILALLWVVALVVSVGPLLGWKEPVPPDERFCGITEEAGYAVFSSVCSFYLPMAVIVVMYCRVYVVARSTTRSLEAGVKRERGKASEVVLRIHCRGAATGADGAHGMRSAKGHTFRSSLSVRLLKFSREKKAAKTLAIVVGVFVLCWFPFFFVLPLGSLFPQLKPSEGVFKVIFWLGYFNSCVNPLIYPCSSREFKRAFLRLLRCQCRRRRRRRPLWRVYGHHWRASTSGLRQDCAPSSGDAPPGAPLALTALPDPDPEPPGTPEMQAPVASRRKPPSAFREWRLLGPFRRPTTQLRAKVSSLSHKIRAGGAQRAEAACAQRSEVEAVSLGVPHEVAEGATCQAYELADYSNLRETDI

Assays:
[1] = target: T1, human recombinant α1a adrenoceptor (Homo sapiens, UniProt P35348); test: Radioligand binding ([3H]prazosin) on membranes of CHO cells expressing cloned α1a adrenoceptor; settings: human cloned receptor, CHO cell membranes, 0.2 nM [3H]prazosin; read-out: Affinity (Ki) α1a
T1 construct: expressed in transfected cells; host or cells: CHO cells (membranes)
T1 sequence (P35348 1-466): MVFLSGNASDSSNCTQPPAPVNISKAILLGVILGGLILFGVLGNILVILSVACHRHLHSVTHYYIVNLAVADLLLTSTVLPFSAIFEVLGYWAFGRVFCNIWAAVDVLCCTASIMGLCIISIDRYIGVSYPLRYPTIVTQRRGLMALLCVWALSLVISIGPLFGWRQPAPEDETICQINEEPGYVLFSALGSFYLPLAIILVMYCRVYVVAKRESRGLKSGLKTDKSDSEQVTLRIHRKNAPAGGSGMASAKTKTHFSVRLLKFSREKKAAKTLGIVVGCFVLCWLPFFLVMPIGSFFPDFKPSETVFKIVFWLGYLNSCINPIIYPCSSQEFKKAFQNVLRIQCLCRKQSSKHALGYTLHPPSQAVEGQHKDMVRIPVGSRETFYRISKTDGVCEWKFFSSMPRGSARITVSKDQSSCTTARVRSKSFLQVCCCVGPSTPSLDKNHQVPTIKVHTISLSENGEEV
Method: (§1) The determination of affinity for cloned subtypes of human α1 adrenergic receptors was performed in membranes from CHO cells (chinese hamster ovary cells) transfected by electroporation with DNA expressing the genes encoding each α1-adrenoceptor subtype, namely α1a, α1b and α1d.. Cloning and stable expression of the human α1-adrenoceptor gene were performed as previously described (Testa et al., Pharmacol. Comm. 6, 79-86 (1995)). CHO cell membranes were incubated in […] Tris pH 7.4 with 0.2 nM [^3H]prazosin, in a final volume of 1.02 ml for 30 minutes at 25°C, in the absence or presence of competing drugs (1 pM-10 µM). Non-specific binding was determined in the presence of 10 µM phentolamine. Incubation was stopped by addition of ice-cold Tris buffer and rapid filtration through 0.2% polyethyleneimine pretreated Schleicher & Schuell GF52 filters. […] The HeLa cells were grown as monolayers in Dulbecco's modified Eagle's medium (DMEM), supplemented with 10% foetal calf serum and gentamicin (100 µg/ml), 5% CO2, at 37°C. […] The inhibition of specific binding of the radioligands by the drugs was analysed to estimate the IC50 value by using the non-linear curve-fitting programme Allfit (De Lean et al., Am. J. Physiol. 235, E97-E102 (1978)). […] Data were expressed as mean of Ki.

[2] = target: T2, human recombinant α1d adrenoceptor (Homo sapiens, UniProt P25100); test: Radioligand binding ([3H]prazosin) on membranes of CHO cells expressing cloned α1d adrenoceptor; settings: human cloned receptor, CHO cell membranes, 0.2 nM [3H]prazosin; read-out: Affinity (Ki) α1d
T2 construct: expressed in transfected cells; host or cells: CHO cells (membranes)
Method: as §1

Row | Ki [1] | Structure (SMILES) | Ki [2]
1 | 128 nM | O=C1CC2(CCCC2)CC(=O)N1CCN1CCN(c2cc(Cl)ccc2Cl)CC1 [Example 1, 8-{2-[4-(2,5-Dichlorophenyl)-1-piperazinyl]-ethyl}-8-azaspiro[4.5]decane-7,9-dione] | 
2 |  | Cc1ccc(Cl)c(N2CCN(CCN3C(=O)CC4(CCCC4)CC3=O)CC2)c1 [Example 3, 8-{2-[4-(2-Chloro-5-methylphenyl)-1-pirerazinyl]-ethyl}-8-azaspiro[4.5]decane-7,9-dione] | 2.91 nM
3 | 92 nM | O=C1CCC(=O)N1CCN1CCN(c2cc(Cl)ccc2Cl)CC1 [Example 12, 1-{2-[4-(2,5-Dichlorophenyl)-1-piperazinyl]-ethyl}-pyrrolidine-2,5-dione] | 
